Tests used:
Homo sapiens [1] = species on record: Homo sapiens; assay: Selectivity ratio of IC50 for RAF1 (unknown origin) to IC50 for human N-terminal GST tagged VEGFR-2 expressed in baculovirus infected Sf9 cells
Homo sapiens [2] = species on record: Homo sapiens; assay: Selectivity ratio of IC50 for TIE2 (unknown origin) to IC50 for human wild type BRAF
Homo sapiens [3] = species on record: Homo sapiens; assay: Selectivity ratio of IC50 for PDGFR beta (unknown origin) to IC50 for human N-terminal GST tagged VEGFR-2 expressed in baculovirus infected Sf9 cells
Homo sapiens [4] = species on record: Homo sapiens; assay: Selectivity ratio of IC50 for RAF1 (unknown origin) to IC50 for human wild type BRAF
Homo sapiens [5] = species on record: Homo sapiens; assay: Selectivity ratio of IC50 for c-kit (unknown origin) to IC50 for human wild type BRAF
Homo sapiens [6] = species on record: Homo sapiens; assay: Selectivity ratio of IC50 for FGFR1 (unknown origin) to IC50 for human wild type BRAF
Homo sapiens [7] = species on record: Homo sapiens; assay: Selectivity ratio of IC50 for PDGFR beta (unknown origin) to IC50 for human wild type BRAF
Homo sapiens [8] = species on record: Homo sapiens; assay: Selectivity ratio of IC50 for FGFR1 (unknown origin) to IC50 for human N-terminal GST tagged VEGFR-2 expressed in baculovirus infected Sf9 cells
Homo sapiens [9] = species on record: Homo sapiens; assay: Selectivity ratio of IC50 for TIE2 (unknown origin) to IC50 for human N-terminal GST tagged VEGFR-2 expressed in baculovirus infected Sf9 cells
Homo sapiens [10] = species on record: Homo sapiens; assay: Selectivity ratio of IC50 for c-kit (unknown origin) to IC50 for human N-terminal GST tagged VEGFR-2 expressed in baculovirus infected Sf9 cells

Measured: Ratio IC50

CCOC(=O)c1ccc(Nc2ccnc(SCC(=O)c3ccc(C#N)cc3)n2)cc1
1.5 to 3: all assays above

— ChEMBL document CHEMBL4396916, “Novel potent substituted 4-amino-2-thiopyrimidines as dual VEGFR-2 and BRAF kinase inhibitors” (Eur J Med Chem, 2019)
